# Experimental data: US5130450A, “Platinum complexes” (Nippon Kayaku Kabushiki Kaisha, priority 1990, dated 1992)
row,Solubility in water [µg/mL],Compound
1,> 5000,"CC(C)(CO)C(=O)[O-].CC(C)(CO)C(=O)[O-].N.N.[Pt+2] [compound No. 11, cis-Bis(3-hydroxy-2,2-dimethylpropionato)-diammine platinum (II)]"
2,> 5000,"CC(C)(CO)C(=O)[O-].CC(C)(CO)C(=O)[O-].NCC1(N)CCCCC1.[Pt+2] [compound No. 14, cis-Bis(3-hydroxy-2,2-dimethylpropionato)-1-amino-1-aminomethylcyclohexane platinum (II)]"
3,> 5000,cis-Bis(1-hydroxy-cyclobutane-1-carboxylato)-diammine platinum (II) [compound No. 3]
4,> 5000,"cis-Bis(2-hydroxy-3,3-dimethylbutyrato)trans-1,2-diaminocyclohexane platinum (II) [compound No. 6]"
